Common to all, as to set-up: scale not given: the % may be the effect or the level left
Assay [1] addresses T1, Acetylcholinesterase (Rattus norvegicus) (UniProt P37136).
T1 sequence (whole entry): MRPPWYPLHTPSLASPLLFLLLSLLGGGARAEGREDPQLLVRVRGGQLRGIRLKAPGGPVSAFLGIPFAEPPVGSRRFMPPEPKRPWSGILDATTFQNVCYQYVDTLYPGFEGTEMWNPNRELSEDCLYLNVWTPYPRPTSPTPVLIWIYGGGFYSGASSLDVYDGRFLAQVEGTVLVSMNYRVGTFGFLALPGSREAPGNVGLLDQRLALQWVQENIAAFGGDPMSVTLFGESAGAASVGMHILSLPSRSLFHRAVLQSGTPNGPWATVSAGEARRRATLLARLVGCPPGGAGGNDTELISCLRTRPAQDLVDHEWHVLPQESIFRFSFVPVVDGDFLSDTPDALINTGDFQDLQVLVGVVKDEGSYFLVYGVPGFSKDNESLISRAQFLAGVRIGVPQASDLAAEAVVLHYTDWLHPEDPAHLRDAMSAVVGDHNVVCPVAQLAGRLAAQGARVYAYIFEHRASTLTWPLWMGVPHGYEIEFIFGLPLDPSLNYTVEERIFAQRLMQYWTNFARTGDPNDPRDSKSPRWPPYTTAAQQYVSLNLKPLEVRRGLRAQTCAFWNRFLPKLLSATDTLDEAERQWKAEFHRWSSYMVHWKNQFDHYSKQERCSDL
The experiment in a line: Reactivation of 1 mM paraoxon-inhibited rat brain AchE.

Assay [2] concerns the target T1, Acetylcholinesterase (Rattus norvegicus). The experiment in a line: Reactivation of 0.1 uM tabun-inhibited rat brain AchE.
Assay [3] shares this target. The assay can be described thus: Reactivation of 0.1 uM paraoxon-inhibited rat brain AchE.
Assay [4] has the same target. The assay can be described thus: Reactivation of 1 mM tabun-inhibited rat brain AchE.

For 17 compounds, Activity results are on record in ChEMBL document CHEMBL1137446, “Monooxime reactivators of acetylcholinesterase with (E)-but-2-ene linker: preparation and reactivation of tabun- and paraoxon-inhibited acetylcholinesterase” (2007).

Consider `O=C(O)c1cc[n+](C/C=C/C[n+]2ccc(/C=N\O)cc2)cc1`, for which the Activity in assay [1] is 63%; in assay [2] it was 3%; in assay [3] it was 15%; in assay [4], 11%.

For the compound `O/N=C\c1cc[n+](C/C=C/C[n+]2ccccn2)cc1`, the Activity in assay [1] stood at 35%; in assay [2], 0%; in assay [3], 23%; in assay [4], 0%.

As for `OCc1cc[n+](C/C=C/C[n+]2ccc(/C=N\O)cc2)cc1`, the Activity worked out at 50% in assay [1], 0% in assay [2], 42% in assay [3] and 2% in assay [4].

As to `CC(C)(C)c1cc[n+](C/C=C/C[n+]2ccc(/C=N\O)cc2)cc1`, the Activity turned out to be 52% in assay [1], 0% in assay [2], 14% in assay [3] and 7% in assay [4].

Consider `O/N=C\c1cc[n+](C/C=C/C[n+]2ccccc2)cc1`, for which the Activity in assay [1] came to 57%; in assay [2], 0%; in assay [3] it was 22%; in assay [4], 4%.

Turning to `CC(=O)c1cc[n+](C/C=C/C[n+]2ccc(/C=N\O)cc2)cc1`, the Activity in assay [1] was determined as 68%; in assay [2], 2%; in assay [3], 36%; in assay [4], 11%.

`O/N=C\c1cc[n+](C/C=C/C[n+]2ccc(Cc3ccccc3)cc2)cc1`: the Activity in assay [1] is 0%; in assay [2], 0%; in assay [3] it was 14%; in assay [4], 0%.

As for `O/N=C\c1cc[n+](C/C=C/C[n+]2ccc(/C=N/O)cc2)cc1`, the Activity was determined as 19% in assay [2] and 42% in assay [4].

`O/N=C\c1cc[n+](C/C=C/C[n+]2cccc3ccccc32)cc1`: the Activity worked out at 0% in assay [1], 0% in assay [2], 15% in assay [3] and 0% in assay [4].

As to `O/N=C\c1cc[n+](C/C=C/C[n+]2ccc(-c3ccccc3)cc2)cc1`, the Activity came out at 13% in assay [1], 4% in assay [2], 22% in assay [3] and 0% in assay [4].

For `N#Cc1cc[n+](C/C=C/C[n+]2ccc(/C=N\O)cc2)cc1`, the Activity in assay [1] is 54%; in assay [2] it was 0%; in assay [3], 28%; in assay [4] it was 0%.

On to `O/N=C\c1cc[n+](C/C=C/C[n+]2ccc3ccccc3c2)cc1`, for which the Activity stood at 43% in assay [1], 3% in assay [2], 48% in assay [3] and 0% in assay [4].

For the compound `CCOC(=O)c1cc[n+](C/C=C/C[n+]2ccc(/C=N\O)cc2)cc1`, the Activity in assay [1] was 68%; in assay [2], 2%; in assay [3], 30%; in assay [4], 9%.

Compound `NC(=O)c1cc[n+](COC[n+]2ccccc2/C=N/O)cc1` returned an Activity in assay [3] of 0%.

As for `O=C(O)CSc1cc[n+](C/C=C/C[n+]2ccc(/C=N\O)cc2)cc1`, the Activity in assay [1] came to 13%; in assay [2], 0%; in assay [3], 6%; in assay [4] it was 0%.

Turning to `N/C(=N\O)c1cc[n+](C/C=C/C[n+]2ccc(/C=N\O)cc2)cc1`, the Activity in assay [1] stood at 52%; in assay [2], 9%; in assay [3] it was 32%; in assay [4], 14%.

On to `Cc1cc[n+](C/C=C/C[n+]2ccc(/C=N\O)cc2)cc1`, for which the Activity in assay [1] is 61%; in assay [2], 0%; in assay [3] it was 26%; in assay [4] it was 0%.
